Values of other authors, collected in patent US10849956B2, “Glycopeptide compositions” (priority 2014, dated 2020).

Key:
Conditions in all cases: referent QC range according to the CLSI protocol; cited from earlier work
[1] = tested on: Enterococcus faecalis ATCC 29212
[2] = tested on: Streptococcus pnemoniae ATCC 49619
[3] = tested on: Staphylococcus aureus ATCC 29213

CC1(C)S[C@@H]2[C@H](NC(=O)[C@H](N)c3ccc(O)cc3)C(=O)N2[C@H]1C(=O)O [Amoxicillin USP standard, Amoxicillin]
CLSI range / Referent MIC ranges (μg/mL), Enterococcus faecalis ATCC 29212 [1]: (0.5-2) μg/mL | CLSI range / Referent MIC ranges (μg/mL), Streptococcus pnemoniae ATCC 49619 [2]: (0.03-0.125) μg/mL | CLSI range / Referent MIC ranges (μg/mL), Staphylococcus aureus ATCC 29213 [3]: (0.5-2) μg/mL
